Reference: article PMC4556431 (Angewandte Chemie (International ed. in English), 2015)

Amino acid sequences for entries named in this document (tags omitted). Residues count along the entry.
UniProt A0A0H2ZD27, 25-319 limits assumed: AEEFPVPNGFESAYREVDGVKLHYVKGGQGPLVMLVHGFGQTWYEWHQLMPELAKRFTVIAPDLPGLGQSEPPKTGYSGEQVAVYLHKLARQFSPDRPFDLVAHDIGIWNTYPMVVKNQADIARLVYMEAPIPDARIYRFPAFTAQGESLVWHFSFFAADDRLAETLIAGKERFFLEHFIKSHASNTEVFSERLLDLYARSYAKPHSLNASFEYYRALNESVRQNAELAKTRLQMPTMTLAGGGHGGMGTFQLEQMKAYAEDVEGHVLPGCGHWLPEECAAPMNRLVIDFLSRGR

Biological target: Cif (CFTR inhibitory factor) (Pseudomonas aeruginosa, UniProt A0A0H2ZD27)
Details: substrate CMNGC; apparently not competitive

In the case of `O=C(O)Cc1cc(I)c(Oc2ccc(O)c(I)c2)c(I)c1` [compound 3, tiratricol], the Ki is reported as “Kinetic determination of tiratricol equilibrium inhibition constant (Ki) of Cif”.
